Measured values reported in US11518981B2, “Methods of enhancing engraftment activity of hematopoietic stem cells” (CHILDREN'S HOSPITAL MEDICAL CENTER, priority 2017, dated 2022).

Assays:
[1] = tested on: p38 MAPK; assay: phospho-p38 MAPK (p-p38) flow cytometry in cultured, transduced HSCs; type: cell-based, human; conditions: LV or RV transduced, all culture conditions; 600 nM
[2] = tested on: CD34^+ cells / CD34^+38^−90^+ HSCs; assay: gene transfer / transduction efficiency (GFP or CFP marker); type: cell-based, human
Method: Freshly isolated CD34^+ cells were used, wherever possible, and especially for 0 h controls. In some experiments cryopreserved CD34^+ cells were thawed for 4 hrs in IMDM containing cytokines, then washed and used for experiments. […] Cells were kept in culture for a total of either 18-24 hours, 36-42 hours or 72-96 hours. For RV transduction, human CD34^+ cells were pre-stimulated for 2 days (42-48 hours) hours at a cell density of 3×10^5 cells/ml. Retronectin coated tissue culture flasks or plates were preloaded at room temperature with GALV pseudotyped RV twice for one hour each. The vector supernatant was removed and the cells were loaded into the RV loaded retronectin coated flasks. RV transduction was also performed twice 24 hours apart at an MOI ranging from 5 to 10. After total of 72-96 hours in culture, cells were harvested. LV and RV transductions were performed at 37° C. under 5% CO2 in ambient oxygen concentrations (20% 02). For some experiments, LV was added just like RV after 2 days of pre-stimulation. p38 MAPK inhibitors Birb 796 (600 nM), Vx-745 (1 μM), or LY 2228820 (500 nM) (all from Selleckchem) were supplemented to the culture media. […]

Cc1ccc(-n2nc(C(C)(C)C)cc2NC(=O)Nc2ccc(OCCN3CCOCC3)c3ccccc23)cc1 [p38i, 1-[5-tert-butyl-2-(4-methylphenyl)pyrazol-3-yl]-3-[4-(2-morpholin-4-ylethoxy)naphthalen-1-yl]urea]
phospho-p38 (p-p38) in HSCs [1]: significantly lower | transduction efficiency in the HSC compartment ([2]; CD34^+38^−90^+ cells): no difference | gene transfer efficiency in vitro or in vivo ([2]; total human GFP^+ cells before transplant and 6, 24 weeks post 1 T): no effect
